This experiment addresses His-tagged TDG protein (Homo sapiens, UniProt Q13569). The experiment in a line: HTRF assay: inhibition of the binding of TDG to double-stranded DNA substrates. The note with it: read-out: Activity, IC50 class, TDG 40 nM, Biotin-labeled dsDNA substrate 40 nM, 4PL fit. The procedure: HTRF (Homogeneous Time-Resolved Fluorescence) technology was used to evaluate the inhibitory effects of the compounds on the binding of TDG to double-stranded DNA substrates.
Microplate reader (manufacturer: Perkin Elmer; model: Envision multilabel reader equipped with HTRF module) and Echo 550 (manufacturer: Labcyte; model: Echo 550).
• 1. Preparation of compound concentration gradient: Test compounds were prepared at a starting concentration of 250 µM, with 3-fold serial dilution, 10 concentrations, and duplicate wells. In a 384-well plate, the compounds were gradient-diluted to 40× final concentration solutions at 10 different concentrations. Then 500 nl was transferred to a 384-well reaction plate using Echo 550 for later use. To the negative control wells and positive control wells, 500 nl of 100% DMSO or Biotin-unlabeled dsDNA substrate was added, respectively. • 2. Add 1.5 µl/well of Epigeneous Binding Domain diluent buffer to the 384-well plate, and centrifuge at 1000 rpm for 1 min. • 3. Add 4 µl of 5× final concentration of His-tagged TDG protein (final concentration 40 nM, diluted with Epigeneous Binding Domain diluent buffer) to the 384-well plate, centrifuge at 1000 rpm for 1 min, and incubate at room temperature for 10 min. • 4. Add 4 µl of 5× final concentration of Biotin-labeled dsDNA substrate (final concentration 40 nM, diluted with Epigeneous Binding Domain diluent buffer) to the 384-well plate, centrifuge at 1000 rpm for 1 min, and incubate at room temperature for 30 min. • 5. Add 5 µl of 4× final concentration of Streptavidin-XL665 (final concentration 5 nM, diluted with Epigeneous Binding Domain Detection buffer) to the 384-well plate, and centrifuge at 1000 rpm for 1 min. • 6. Add 5 µl of 4× final concentration of MAb Anti-6HIS-Eu cryptate Gold (final concentration 0.1 µg/ml, diluted with Epigeneous Binding Domain Detection buffer) to the 384-well plate, and centrifuge at 1000 rpm for 1 min.
Incubate overnight at 4 °C, and read HTRF on the microplate reader.
• 1. Calculation of Ratio value for each well Ratio = Signal 665 nm / Signal 620 nm × 104. • 2. Calculation of delta Ratio value for each well delta Ratio = Ratio standard or sample - Ratio standard 0 (negative control). • 3. IC50 values were fitted using a four-parameter logistic (4PL) curve.

Chains of the proteins cited; added tags and fusions are not shown.
UniProt Q13569, whole entry: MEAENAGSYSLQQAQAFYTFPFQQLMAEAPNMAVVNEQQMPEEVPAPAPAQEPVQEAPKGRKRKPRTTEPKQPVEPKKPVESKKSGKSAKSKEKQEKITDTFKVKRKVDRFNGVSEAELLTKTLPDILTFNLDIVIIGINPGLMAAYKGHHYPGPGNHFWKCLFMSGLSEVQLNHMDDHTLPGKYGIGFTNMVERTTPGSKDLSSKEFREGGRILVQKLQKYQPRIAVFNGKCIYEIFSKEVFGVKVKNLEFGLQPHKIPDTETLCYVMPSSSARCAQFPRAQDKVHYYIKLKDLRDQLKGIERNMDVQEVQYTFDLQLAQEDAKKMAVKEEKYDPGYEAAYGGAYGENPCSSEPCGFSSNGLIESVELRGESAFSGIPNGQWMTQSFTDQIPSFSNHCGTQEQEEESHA

Structures are written as SMILES.

Take `COc1cc(O)c(CCC(=O)N[C@H](CNC(=O)CC2CCCCC2)C(=O)O)cc1C1CCC(=O)O1` (some centres unmarked): the IC50 fell in the range of 0.5 to 5 µM. In the case of `O=C1CCC(c2ccc(O)c3c2OCCO3)O1` (centres unmarked), the IC50 is < 0.5 µM. As to `COc1cc(OC(C)=O)c(CCC(=O)N(C)C)cc1C1CCC(=O)O1` (centres unmarked), the IC50 was > 50 µM. The value for `Cc1cc(C2OC(=O)C3CC32)c(OCC(F)(F)F)cc1O` (centres unmarked) was 0.5 to 5 µM. For `Cc1cc(C2OC(=O)C3CC32)c(-c2cnn(C)c2)cc1O` (centres unmarked), the half-maximal inhibitory concentration (IC50) lay in the range of 5 to 50 µM. With `COc1c(C2OC(=O)C3CC32)cc(C)c(O)c1C` (centres unmarked), the IC50 is < 0.5 µM. Regarding `CCCc1cc(C2OC(=O)C3CC32)c(OC)cc1O` (centres unmarked), the IC50 was < 0.5 µM. For `COc1cc(O)c(C)cc1C1CCC(=O)O1` (centres unmarked), the IC50 is < 0.5 µM. The value for `COc1cc(O)cc(Br)c1C1CCC(=O)O1` (centres unmarked) was 5 to 50 µM; that for `CCOC(=O)CCc1cc(C2CCC(=O)O2)c(OC)cc1O` (centres unmarked) was 0.5 to 5 µM; that for `O=C1CCC(c2c(-c3cnn(-c4ccccc4)c3-c3ccccc3)cc(O)c3ccccc23)O1` (centres unmarked) was 5 to 50 µM. With `C=Cc1cc(O)c(C)cc1C1OC(=O)C2CC21` (centres unmarked) the figure was 0.5 to 5 µM; with `CCOc1cc(O)c(C)cc1C1OC(=O)C2CC21` (centres unmarked), 0.5 to 5 µM; with `Cc1cc(C2OC(=O)C3CC32)c(N2CCN(C)CC2)cc1O` (centres unmarked), 5 to 50 µM.

Take `Cc1cc(C2OC(=O)C3CC32)c(N(C)C)cc1O` (centres unmarked): the IC50 is < 0.5 µM.

Take `COc1cc(O)c(CCC(=O)N[C@@H](CNC(=O)CC2CCCCC2)C(=O)NCCOCCOCCC(=O)O)cc1C1CCC(=O)O1` (some centres unmarked): the IC50 is < 0.5 µM. With `COc1cc(O)c(CCC(=O)N[C@H](CNC(=O)CC2CCCCC2)C(=O)NCCOCCOCCC(=O)O)cc1C1CCC(=O)O1` (some centres unmarked), the IC50 is < 0.5 µM. With `COc1cc(O)c(CCC(=O)O)cc1C1CCC(=O)O1` (centres unmarked), the IC50 is < 0.5 µM. Turning to `O=C1CCC(c2c(Br)cc(OC(=O)[C@@H]3CCCN3)c3ccccc23)O1` (some centres unmarked), the 50% inhibitory concentration (IC50) is < 0.5 µM. Consider `NS(=O)(=O)Oc1cc(Br)c(C2OC(=O)C3CC32)c2ccccc12` (centres unmarked), for which the IC50 is < 0.5 µM. With `C#Cc1cc(O)c(C)cc1C1OC(=O)C2CC21` (centres unmarked) the figure was 5 to 50 µM. Regarding `Cn1cc(-c2cc(O)c3ccccc3c2C2OC(=O)C3CC32)cn1` (centres unmarked), the IC50 lay within 0.5 to 5 µM. With `COc1cc(C2OC(=O)C3CC32)c(OC)cc1O` (centres unmarked) the figure was < 0.5 µM; with `CN(C)c1cc(O)cc(Cl)c1C1OC(=O)C2CC21` (centres unmarked), < 0.5 µM. Regarding `O=C1CC2CCc3cc(O)cc(Br)c3C2O1` (centres unmarked), the IC50 lay within 5 to 50 µM.

Take `COc1cc(O)c(C2CC2)cc1C1OC(=O)C2CC21` (centres unmarked): the IC50 is 0.5 to 5 µM.

On to `COc1cc(O)c(C#N)cc1C1CCC(=O)O1` (centres unmarked), for which the IC50 was > 50 µM. The value for `CC(=O)Oc1cc(Cl)c(C2OC(=O)C3CC32)c2ccccc12` (centres unmarked) was < 0.5 µM. Take `COC(=O)CCc1cc(C2OC(=O)C3CC32)c(OC)cc1O` (centres unmarked): the IC50 lay in the range of 0.5 to 5 µM. The value for `Cc1cc(C2OC(=O)C3CC32)c(N(C)CCN(C)C(=O)OC(C)(C)C)cc1O` (centres unmarked) was 0.5 to 5 µM. With `O=C1CCC(c2c(-c3cccnc3)cc(O)c3ccccc23)O1` (centres unmarked) the figure was 0.5 to 5 µM. The value for `O=C1OC(c2c(C3=CCOCC3)cc(O)c3ccccc23)C2CC12` (centres unmarked) was 0.5 to 5 µM.

As to `CS(=O)(=O)c1cc(O)c2ccccc2c1C1CCC(=O)O1` (centres unmarked), the IC50 is 5 to 50 µM. Turning to `COc1cc(O)c(CCC(=O)NC[C@@H](NC(=O)CC2CCCCC2)C(=O)NCCOCCOCCC(=O)O)cc1C1CCC(=O)O1` (some centres unmarked), the IC50 is 0.5 to 5 µM.

On to `O=C1CCC(c2c(-c3cccc4c3ccn4C3CCOCC3)cc(O)c3ccccc23)O1` (centres unmarked), for which the half-inhibitory concentration (IC50) was in the range of 0.5 to 5 µM.

Take `O=C1CCC(c2c(Br)cc(OC(=O)c3ccc(C(F)(F)F)cc3)c3ccccc23)O1` (centres unmarked): the IC50 was < 0.5 µM. On to `Cc1cc(C2OC(=O)C3CC32)c(/C=C/c2ccccc2)cc1O` (centres unmarked), for which the IC50 lay within 0.5 to 5 µM.

For the compound `Cc1cc(C2OC(=O)C3CC32)c(OC2CCOCC2)cc1O` (centres unmarked), the IC50 was 0.5 to 5 µM. The value for `C=CC(=O)N1CCN(Cc2cc(C3OC(=O)C4CC43)c(OC)cc2O)CC1` (centres unmarked) was 0.5 to 5 µM; that for `Cc1cc(C2OC(=O)C3CC32)c(-c2ccccc2)cc1O` (centres unmarked) was 5 to 50 µM. The value for `Cc1cc(C2OC(=O)C3CC32)c(S(C)(=O)=O)cc1O` (centres unmarked) was > 50 µM; that for `Cc1cc(C2OC(=O)C3CC32)c(C#C[Si](C(C)C)(C(C)C)C(C)C)cc1O` (centres unmarked) was > 50 µM. In the case of `O=C1CCC(c2c(C(F)(F)F)cc(O)c3ccccc23)O1` (centres unmarked), the IC50 fell in the range of 0.5 to 5 µM. With `Cn1ncc(-c2cc(O)c3ccccc3c2C2CCC(=O)O2)c1-c1ccccc1` (centres unmarked) the figure was 0.5 to 5 µM; with `C=CC(=O)N1CCCCC1CC(=O)NCC(NC(=O)CCc1cc(C2CCC(=O)O2)c(OC)cc1O)C(=O)O` (centres unmarked), 0.5 to 5 µM. With `CCN(CC)c1cc(O)c(C)cc1C1OC(=O)C2CC21` (centres unmarked) the figure was 0.5 to 5 µM. On to `COc1cc(OC(C)=O)ccc1C1CCC(=O)O1` (centres unmarked), for which the IC50 was 5 to 50 µM. `Cc1cc(C2OC(=O)C3CC32)c(Cl)cc1O` (centres unmarked): the IC50 is 5 to 50 µM. With `COc1cc(O)cc(Oc2ccccc2)c1C1CCC(=O)O1` (centres unmarked) the figure was 5 to 50 µM; with `COc1cc(OC)c(Cl)c(C(=O)Oc2cc(Br)c(C3CCC(=O)O3)c3ccccc23)c1Cl` (centres unmarked), > 50 µM.

Regarding `COc1cc(O)ccc1C1OC(=O)C2CC21` (centres unmarked), the IC50 was 0.5 to 5 µM. The value for `Cn1cc(-c2cc(O)c3cccnc3c2C2CCC(=O)O2)cn1` (centres unmarked) was 0.5 to 5 µM. With `O=C1CCC(c2c(Br)cc(OC(=O)c3ccccc3[N+](=O)[O-])c3ccccc23)O1` (centres unmarked) the figure was 0.5 to 5 µM. With `O=C1CCC(c2c(Br)cc(O)c3ccccc23)O1` (centres unmarked) the figure was < 0.5 µM; with `CC(=O)Oc1cc(-c2cnn(C)c2)c(C2CCC(=O)O2)c2ccccc12` (centres unmarked), 0.5 to 5 µM; with `COc1cc(O)c(CCC(=O)O)cc1C1CC(C)(C)C(=O)O1` (centres unmarked), 5 to 50 µM.

For the compound `COc1cc(O)c(Br)cc1C1CCC(=O)O1` (centres unmarked), the IC50 fell in the range of 5 to 50 µM. On to `COc1cc(O)c(CCC(=O)N(C)C)cc1C1CCC(=O)O1` (centres unmarked), for which the IC50 fell in the range of 0.5 to 5 µM.

On to `O=C1CCC(c2ccc(O)c3cccnc23)O1` (centres unmarked), for which the IC50 was in the range of 0.5 to 5 µM. With `COc1cc(O)c(CCC(=O)NC[C@@H](NC(=O)CC2CCCCC2)C(=O)O)cc1C1CCC(=O)O1` (some centres unmarked) the figure was 0.5 to 5 µM. In the case of `COc1cc(O)c(CCC(=O)N[C@H](CNC(=O)CC2CCCCC2)C(=O)NC2CCCCC2)cc1C1CCC(=O)O1` (some centres unmarked), the IC50 fell in the range of 5 to 50 µM. The value for `COc1cc(O)c(C(C)(C)C)cc1C1OC(=O)C2CC21` (centres unmarked) was 5 to 50 µM; that for `CCCc1c(O)ccc(C2OC(=O)C3CC32)c1OC` (centres unmarked) was 0.5 to 5 µM; that for `O=C1CCC(c2c(-c3cnc4ccccc4c3)cc(O)c3ccccc23)O1` (centres unmarked) was < 0.5 µM.

In the case of `COc1cc(O)c(-c2ccccc2)cc1C1CCC(=O)O1` (centres unmarked), the IC50 is 0.5 to 5 µM.

As for `Cc1cc(C2OC(=O)C3CC32)c(F)cc1O` (centres unmarked), the IC50 lay in the range of 0.5 to 5 µM. With `CC(=O)Oc1cc(-c2cnc3ccccc3c2)c(C2CCC(=O)O2)c2ccccc12` (centres unmarked) the figure was < 0.5 µM. `COc1cc(O)ccc1C1CC(c2ccccc2)C(=O)O1` (centres unmarked): the IC50 was in the range of 0.5 to 5 µM. With `COc1cc(OC(C)=O)ccc1C1OC(=O)C2CC21` (centres unmarked) the figure was 5 to 50 µM. The value for `COC(=O)Oc1cc(Br)c(C2CCC(=O)O2)c2ccccc12` (centres unmarked) was 0.5 to 5 µM; that for `Cc1cc(C2OC(=O)C3CC32)c(Br)cc1O` (centres unmarked) was 5 to 50 µM. With `COc1cc(O)c(C2CCCCC2)cc1C1OC(=O)C2CC21` (centres unmarked) the figure was 0.5 to 5 µM; with `COc1c(C2OC(=O)C3CC32)cc(C)c(O)c1OC` (centres unmarked), 0.5 to 5 µM. Consider `COc1cc2c(cc1C1CCC(=O)O1)CCC(=O)O2` (centres unmarked), for which the IC50 lay in the range of 5 to 50 µM. Regarding `COc1cc(O)c(C)cc1C1OC(=O)C2C1C2(C)C` (centres unmarked), the IC50 is 5 to 50 µM.

For the compound `O=C1CCC(c2c(-c3cnccc3-c3ccccc3)cc(O)c3ccccc23)O1` (centres unmarked), the IC50 fell in the range of 0.5 to 5 µM.

With `Nc1ccccc1C(=O)Oc1cc(Br)c(C2CCC(=O)O2)c2ccccc12` (centres unmarked), the IC50 is < 0.5 µM. With `CC(=O)Oc1cc(Br)c(C2CCC(=O)O2)c2ccccc12` (single isomer, unassigned) the figure was 0.5 to 5 µM; with `COC(=O)CCc1cc(C2CCC(=O)O2)c(OC)cc1O` (centres unmarked), 0.5 to 5 µM; with `COc1cc(O)c(CCC(=O)NC[C@H](NC(=O)CC2CCCCC2)C(=O)NCCOCCOCCC(=O)O)cc1C1CCC(=O)O1` (some centres unmarked), 0.5 to 5 µM. The value for `COC(=O)OCOc1cc(Br)c(C2OC(=O)C3CC32)c2ccccc12` (centres unmarked) was 5 to 50 µM; that for `O=C1CCC(c2c(Br)cc(OC(=O)c3ccccc3)c3ccccc23)O1` (centres unmarked) was 0.5 to 5 µM. The value for `O=C1CCC(c2c(Br)cc(O)c3cccnc23)O1` (centres unmarked) was < 0.5 µM. Turning to `COc1cc(O)c(CCC(=O)O)cc1C1OC(=O)C2CC21` (centres unmarked), the IC50 was < 0.5 µM. The value for `COc1cc(S)ccc1C1CCC(=O)O1` (centres unmarked) was < 0.5 µM; that for `O=C1CCC(c2c(Cl)cc(O)c3ccccc23)O1` (centres unmarked) was < 0.5 µM.

The values above are taken from patent EP4834898A1, “TDG INHIBITOR COMPOUND AND USE THEREOF” (dated 2026).
